From ChEMBL document CHEMBL5728091, “3-((hetero-)aryl)-alkyl-8-amino-2-oxo-l,3-diaza-spiro-[4.5]-decane derivatives” (2020)

Amino acid sequences for entries named in this document (tags omitted). A change or cut given only in a name is not applied to a line headed by its entry.
UniProt P41146: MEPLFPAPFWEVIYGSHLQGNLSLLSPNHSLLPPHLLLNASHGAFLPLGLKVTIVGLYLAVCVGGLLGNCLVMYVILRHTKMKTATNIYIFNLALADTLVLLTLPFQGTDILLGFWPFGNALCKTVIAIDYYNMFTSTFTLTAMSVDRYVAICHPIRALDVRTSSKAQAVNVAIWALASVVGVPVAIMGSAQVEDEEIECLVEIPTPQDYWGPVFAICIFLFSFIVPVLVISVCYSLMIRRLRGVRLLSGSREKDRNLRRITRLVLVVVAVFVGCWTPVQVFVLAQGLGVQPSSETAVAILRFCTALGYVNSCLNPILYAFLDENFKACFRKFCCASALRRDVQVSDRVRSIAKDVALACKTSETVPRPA
UniProt P35372, whole entry, looked up: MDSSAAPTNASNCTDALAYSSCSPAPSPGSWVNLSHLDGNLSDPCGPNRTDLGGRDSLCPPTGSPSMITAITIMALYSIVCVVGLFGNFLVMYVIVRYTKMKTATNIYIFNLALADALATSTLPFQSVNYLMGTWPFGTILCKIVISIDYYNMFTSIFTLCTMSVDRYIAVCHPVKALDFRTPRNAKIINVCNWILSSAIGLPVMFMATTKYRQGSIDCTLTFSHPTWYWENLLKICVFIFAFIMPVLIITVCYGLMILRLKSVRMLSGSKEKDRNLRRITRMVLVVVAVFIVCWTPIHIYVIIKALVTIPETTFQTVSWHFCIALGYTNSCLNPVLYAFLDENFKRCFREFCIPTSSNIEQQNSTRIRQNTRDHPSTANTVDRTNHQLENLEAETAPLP

Columns and labels:
Nociceptin receptor = Nociceptin receptor (Homo sapiens, UniProt P41146); test: Receptor Binding Assay: The hNOP receptor binding assay was performed as homogeneous SPA-assay (scintillation proximity assay) using the assay buffer 50 mM TRIS-HCl. 10 mM MgCl2. 1 mM EDTA (pH 7.4). The final assay volume (250 ul/well) included 0.5 nM of [leucyl-3H]nociceptin as ligand (PerkinElmer Life Sciences. Inc. Boston. Mass. USA). and either test compound in dilution series or 1 uM unlabell
Mu-type opioid receptor = Mu-type opioid receptor (Homo sapiens, UniProt P35372); test: Receptor Binding Assay: Mu-Opioid Peptide (hMOP): The hMOP receptor binding assay was performed as homogeneous SPA-assay (scintillation proximity assay) using the assay buffer 50 mM TRIS-HCl (pH 7.4) supplemented with 0.052 mg/ml bovine serum albumin (Sigma-Aldrich Co. St. Louis. Mo.). The final assay volume (250 μl/well) included 1 nM of [N-allyl-2.3-3H]naloxone as ligand (PerkinElmer Life Scienc

**Q.** With COc1ccc(CN2C[C@]3(CC[C@](c4ccccc4)(N(C)C)CC3)N(CC3CC3)C2=O)cc1 as the compound, how does the Ki (Nociceptin receptor) read?
**A.** Its Ki is 1310 nM.

**Q.** What about the Ki (Mu-type opioid receptor) of the same compound?
**A.** Its Ki is 21.5 nM.

**Q.** What does the source list for COc1ccc(CN2C[C@]3(CC[C@](c4ccccc4)(N(C)C)CC3)N(CC3(C)CCC3)C2=O)cc1?
**A.** Ki (Nociceptin receptor): 675 nM; Ki (Mu-type opioid receptor): 14 nM

**Q.** With CNC(=O)CN1C(=O)N(Cc2ccc(OC)cc2)C[C@]12CC[C@](c1ccccc1)(N(C)C)CC2 as the compound, how does the Ki (Nociceptin receptor) read?
**A.** The Ki was 3430 nM.

**Q.** And the Ki (Mu-type opioid receptor)?
**A.** The Ki was 390 nM.

**Q.** For COc1ccc(CN2C[C@]3(CC[C@](c4ccccc4)(N(C)C)CC3)NC2=O)cc1, which Ki (Nociceptin receptor) is on record?
**A.** Its Ki is 2640 nM.

**Q.** What about the Ki (Mu-type opioid receptor) of the same compound?
**A.** The Ki was 91 nM.

**Q.** With COc1ccc(CN2C[C@]3(CC[C@](c4ccccc4)(N(C)C)CC3)N(Cc3ccccc3)C2=O)cc1 as the compound, how does the Ki (Nociceptin receptor) read?
**A.** Its Ki is 600 nM.

**Q.** What about the Ki (Mu-type opioid receptor) of the same compound?
**A.** Its Ki is 85.5 nM.

**Q.** What does the source list for COCCN(C)[C@]1(c2ccccc2)CC[C@]2(CC1)CN(Cc1ccc(OC)cc1)C(=O)N2CC1CCC1?
**A.** Ki (Nociceptin receptor): 1920 nM; Ki (Mu-type opioid receptor): 195 nM

**Q.** Which results are given for CN(C)[C@]1(c2ccccc2)CC[C@]2(CC1)CN(C1(c3ccccc3)CC1)C(=O)N2CC1(O)CCC1?
**A.** Ki (Nociceptin receptor): 99.5 nM; Ki (Mu-type opioid receptor): 18 nM

**Q.** What does the source list for COc1ccc(CN2C[C@]3(CC[C@](c4ccc(OC)cc4)(N(C)C)CC3)N(CC3CCC3)C2=O)cc1?
**A.** Ki (Nociceptin receptor): 18.4 nM; Ki (Mu-type opioid receptor): 125 nM

**Q.** How did the Ki (Nociceptin receptor) turn out when COc1ccc(CN2C[C@]3(CC[C@](c4ccccc4)(N(C)C)CC3)N(CCCO)C2=O)cc1 was run?
**A.** The Ki was 4700 nM.

**Q.** And the Ki (Mu-type opioid receptor)?
**A.** The Ki was 218 nM.

**Q.** COCCCN1C(=O)N(Cc2ccc(OC)cc2)C[C@]12CC[C@](c1ccccc1)(N(C)C)CC2 was tested. Which Ki (Nociceptin receptor) did it give?
**A.** The Ki was 310 nM.

**Q.** And the Ki (Mu-type opioid receptor)?
**A.** The Ki was 11.5 nM.

**Q.** How did the Ki (Nociceptin receptor) turn out when CN[C@]1(c2ccccc2)CC[C@]2(CC1)CN(Cc1ccc(OC)cc1)C(=O)N2CC1CCC1 was run?
**A.** The Ki was 275 nM.

**Q.** And the Ki (Mu-type opioid receptor)?
**A.** The Ki was 10.8 nM.
